Laboratory results taken from patent US6540999B1, “Immunomodulatory methods using Lewisx oligosacchardies” (President and Fellows of Harvard College, priority 1996, dated 2003).

System: Human PBMC from B Lymphoma Patients
Conditions: 24 hours; LPS 20 μg/ml, HSA and conjugates 100 μg/ml

lipopolysaccharide [LPS]
IL-10, B-LYMPHOMA-1: 6053 µg/mL
IL-10, B-LYMPHOMA-2: 201 µg/mL
IL-10, B-LYMPHOMA-3: 1049 µg/mL
